Measured values published in publication PMC8752476 (Journal of molecular biology, 2021).

Chains of the proteins cited; added tags and fusions are not shown. Residues count along the entry.
UniProt P00519, 229-515: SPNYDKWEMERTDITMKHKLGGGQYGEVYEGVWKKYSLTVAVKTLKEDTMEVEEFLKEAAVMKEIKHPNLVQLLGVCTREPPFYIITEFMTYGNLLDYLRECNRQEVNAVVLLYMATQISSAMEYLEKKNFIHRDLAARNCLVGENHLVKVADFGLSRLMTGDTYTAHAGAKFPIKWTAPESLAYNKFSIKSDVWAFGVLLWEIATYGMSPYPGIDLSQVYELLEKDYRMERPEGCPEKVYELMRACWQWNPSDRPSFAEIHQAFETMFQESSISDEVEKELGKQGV

Target: Abl kinase domain, myristoyl pocket (Homo sapiens, UniProt P00519)
Test: ITC, binding to the myristoyl
Settings: read-out: Kd, myristoyl pocket, for imatinib the catalytic site is already filled with imatinib

O=C(NCCO)c1cccc(-c2cc(Nc3ccc(OC(F)(F)F)cc3)ncn2)c1 [GNF5]
Kd: ~1000 nM
